Test results taken from patent US10953042B2, “Vanadium insulin-mimetics, methods of preparation, and methods for treatment of diabetes” (The University of Trinidad and Tobago, priority 2017, dated 2021).

How the values were obtained:
[1] = tested on: STZ-induced diabetic rats; details: 75 mg/kgbw intraperitoneal
[2] = tested on: STZ-induced diabetic rats

## (Diaqua)(2,6-pyridine diacetyl-carboxylato)oxovanadium(IV) [Complex 1]
Low pH's (pH 2), 24 hour period
  rate of release from uncoated MCM-41 nanoparticles: high rate of release
pH 7.4, 24 hour period
  release from uncoated MCM-41 nanoparticles: relatively consistent and steady release
[1]
  creatinine levels: significantly reducing creatinine levels
[1]; 30-days
  BUN levels: 20.11 mg/dL
[1]; 90-days
  BUN levels: 20.03 mg/dL
[2]; 100 mg/kgbw oral (FIG. 20)
  BUN levels: significant effect on decreasing BUN levels
[2]; 100 mg/kgbw oral (FIG. 22)
  AST levels: reducing AST and ALT levels
[2]; 100 mg/kgbw oral (FIG. 23)
  ALT levels: reducing AST and ALT levels
[2]; oral (FIG. 21)
  creatinine levels: no significant effect on creatinine levels

Read-outs that look alike come from different tables or passages of the source.
